# Data as given in PubChem BioAssay AID583 (Sanford-Burnham Center for Chemical Genomics, 2007).
# By UniProt entry, the sequences of proteins in these tests, tags left out.
# UniProt P0DMV8, whole entry: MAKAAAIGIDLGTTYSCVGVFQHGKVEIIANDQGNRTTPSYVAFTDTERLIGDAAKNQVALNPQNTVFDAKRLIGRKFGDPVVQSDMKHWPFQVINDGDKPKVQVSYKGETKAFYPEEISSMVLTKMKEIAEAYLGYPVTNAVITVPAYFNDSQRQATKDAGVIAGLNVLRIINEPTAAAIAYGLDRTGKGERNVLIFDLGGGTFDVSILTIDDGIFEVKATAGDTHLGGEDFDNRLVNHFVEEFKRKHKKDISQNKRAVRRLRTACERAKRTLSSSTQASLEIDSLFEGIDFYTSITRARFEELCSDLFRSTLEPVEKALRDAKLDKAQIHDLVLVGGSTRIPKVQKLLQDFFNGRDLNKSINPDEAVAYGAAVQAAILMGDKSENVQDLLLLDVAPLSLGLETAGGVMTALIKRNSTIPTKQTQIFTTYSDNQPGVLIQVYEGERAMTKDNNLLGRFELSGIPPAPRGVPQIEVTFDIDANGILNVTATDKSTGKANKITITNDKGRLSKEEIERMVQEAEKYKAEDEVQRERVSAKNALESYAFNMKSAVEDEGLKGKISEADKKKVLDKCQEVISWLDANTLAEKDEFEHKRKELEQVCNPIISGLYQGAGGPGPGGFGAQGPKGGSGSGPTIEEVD
# The entries are a selection whose mix differs from that of the whole data set. Active and inactive are the calls of the source. No stated cut-off is given here; in the data, active means displacement above about 50%; inactive means the rest.
# Target: Heat shock 70 kDa protein 1A (Homo sapiens) (UniProt P0DMV8)
# Assay: Hsp70 inhibitors, probe displacement, primary screen, biochemical, fluorescence polarization (AID 583);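 further: plate controls were vehicle for no effect and reference ligand for full effect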
# Conditions: mP, at 20 µM, stronger effect = higher value
row,SMILES,displacement
1,N#CC1(Nc2ccccc2)CCN(CCc2ccccc2)CC1,inactive: 3.5%
2,O=C(NCC1(N2CCOCC2)CCCCC1)c1cc(=O)[nH]c2ccccc12,inactive: 0.4%
3,COc1ccc(NC2CCN(CCc3ccccc3)CC2)c(OC)c1,inactive: -3.2%
4,O=C(OC1CN2CCC1CC2)C1c2ccccc2Oc2ccccc21 (stereo not given),inactive: 2.9%
5,O=C(NCC1(N2CCOCC2)CCCCC1)c1cc2ccccc2o1,inactive: 2.7%
6,CCOc1ncccc1C(=O)NCC1(N2CCOCC2)CCCCC1,inactive: 1%
7,CCC(CO)(C(=O)OC1CN2CCC1CC2)c1ccccc1 (stereo not given),inactive: -1.9%
8,Fc1ccccc1NC1CCN(Cc2ccccc2)CC1,inactive: 1%
9,c1ccc(CN2CCC(Nc3ccccc3)CC2)cc1,inactive: 6.3%
10,N/C(=N\O)c1c(N)no[n+]1[O-],inactive: -0.2%
